# AlphaSeq binding of Ab-95 light chain variants to a spike HR2 peptide

The measurements come from Engelhart et al. 2022 (doi:10.1038/s41597-022-01779-4) through the FLAb antibody collection.

Antigen: PDVDLGDISGINAS, a 14-residue peptide of the SARS-CoV-2 spike HR2 region.

Parent: Ab-95, a human scFv built as VH, a 15-residue (Gly4Ser)3 linker, VL. Only the CDRs of the light chain vary.
VH: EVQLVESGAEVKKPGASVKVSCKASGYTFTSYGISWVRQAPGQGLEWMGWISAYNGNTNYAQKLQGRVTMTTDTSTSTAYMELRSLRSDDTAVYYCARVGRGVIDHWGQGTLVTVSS
VL: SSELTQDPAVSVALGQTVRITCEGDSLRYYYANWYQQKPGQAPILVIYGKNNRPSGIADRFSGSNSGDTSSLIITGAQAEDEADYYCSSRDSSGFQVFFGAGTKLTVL

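The parent was found by panning a naive human phage display library on the peptide. The library (AAYL52) carries one to three amino acid substitutions per variant, with no insertions or deletions. Affinity was read by AlphaSeq, a pooled yeast mating assay with surface-displayed partners. Binding brings cells together so that they mate, and sequencing counts the barcode pairs among the diploids. Scores were corrected for input abundance and mapped to Kd with protein pairs of known affinity run in the same pool. Each pool was mated in three replicate cultures.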

Positions count from residue 1 of the parent VL; L27P puts P in place of L.
Numbers give log10(Kd / nM), so 0 is 1 nM and 3 is 1 µM. Smaller is tighter.
The mean shown is taken over the replicates in which the pair was detected.
"not detected" marks a missing value. The strain was present, yet no cells mated with the target were sequenced in any replicate, which points to weak or no binding.
Nonspecific signal, from three strains lacking the peptide, appeared in 28% of pairings of library AAYL52, centred on 3.91 (5% of these signals below 2.90); values are not corrected for it.
In this assay the parent's reference entry averaged 2.31; its copy inside this library read 2.25.

changes,mean log10 Kd (nM),replicates with signal
L27P/Y30T/A32M,2.21,3/3
A32Q/N51E/Q96V,4.34,2/3
N33Q/R90T/F98I,not detected,0/3
L27A/R28Y/N33W,2.65,3/3
D25E/Y31V/N52M,2.71,3/3
Y29E/S88A/D91F,2.10,3/3
K50S/S92R/F95N,2.29,3/3
N33Q/P54Q/S92T,not detected,0/3
Y29I/N51E/S89H,4.09,1/3
D25P/L27H/Y30P,2.39,3/3
G49D/P54M/G94R,3.86,1/3
S26V/N33W,3.22,3/3
S26L/Y30C/N51V,3.84,1/3
L27E/R28Y/S92M,5.47,1/3
R28H/A32M/S93P,not detected,0/3
L27S/R53V/S88F,3.88,2/3
S55P/S89A/G94Y,2.85,3/3
L27I/S88P/F95G,3.55,3/3
A32I/P54G,2.72,3/3
S26V/Y31H/F95W,3.53,3/3
Y30R/N33E,3.37,2/3
Y31A/N33L/N51S,not detected,0/3
R28G/K50N/N51K,2.20,3/3
G49H/P54D/S55F,5.28,1/3
E23S/S26N/R28N,2.75,3/3
E23K/G24C/D91F,3.06,3/3
L27S/R28P/N33I,3.61,1/3
N33H/S88R/F95Y,3.07,1/3
Y29L/N33A/N51H,3.70,2/3
R28M/N51D/N52A,2.78,3/3
Y31P/N51G/S89T,1.91,3/3
R28F/Y29Q/G94M,2.66,3/3

The remaining entries, values ahead:

mean log10 Kd (nM),replicates with signal,changes
5.05,1/3,P54R/S89M/F95H
2.24,3/3,E23Q/D91N/S92W
4.30,1/3,S26C/N51Q/S88N
5.33,2/3,Y29T/R53M/S89R
2.88,1/3,G49N/N51G/F98C
1.26,3/3,Y30E/S89T/D91V
not detected,0/3,R53E/S88Q/S89M
4.25,1/3,A32W/S88K/F98A
4.01,1/3,S26E/S55R/S89P
4.44,2/3,Y29D/N33H/V97Q
not detected,0/3,R53A/S89L/V97H
4.42,1/3,S26C/D91R/S92C
2.07,3/3,G24M/D25E/Y30D
4.59,2/3,D25G/S26C/L27H
4.36,3/3,R28K/R53G/D91Q
1.02,3/3,Y31D/S92T/F95A
2.72,3/3,S89E/D91G
not detected,0/3,Y29I/S55T/Q96V
2.30,3/3,R28D/Y31T/S89E
3.66,2/3,R28A/G49L/R90Y
3.33,3/3,D25V/N51E/Q96E
2.25,3/3,Y29A/R90K
3.44,3/3,S55F/S93C/F95K
2.74,3/3,D25H/G94F/Q96H
2.72,3/3,Y29D/G49D/S55A
3.51,1/3,S26I/N52I/R53G
not detected,0/3,A32H/N51R/S92F
3.17,1/3,L27Q/R28V/N52M
2.83,1/3,P54V/Q96I/F98S
3.23,1/3,R53Y/S89H/D91V
3.56,3/3,G24S/R28D/S89Y
3.17,3/3,N33C/S93R/F98I
not detected,0/3,Y31N/R53C/G94Q

The last 6 entries again:

{"changes": "L27Q/R28V/N52M", "mean log10 Kd (nM)": "3.17", "replicates with signal": "1/3"}
{"changes": "P54V/Q96I/F98S", "mean log10 Kd (nM)": "2.83", "replicates with signal": "1/3"}
{"changes": "R53Y/S89H/D91V", "mean log10 Kd (nM)": "3.23", "replicates with signal": "1/3"}
{"changes": "G24S/R28D/S89Y", "mean log10 Kd (nM)": "3.56", "replicates with signal": "3/3"}
{"changes": "N33C/S93R/F98I", "mean log10 Kd (nM)": "3.17", "replicates with signal": "3/3"}
{"changes": "Y31N/R53C/G94Q", "mean log10 Kd (nM)": "not detected", "replicates with signal": "0/3"}